# Reference: PubChem BioAssay AID493191 (Broad Institute, 2011)
# The list shows a part of the results, in another mix than the full data. Potency and affinity values are given separately. Active and inactive are the calls of the source. How the calls were made is not given here.
# Experiment: MALME3 melanoma cell viability loss, dose response, orthogonal assay for MITF inhibitor project, CellTiter-Glo, cherry-picked (AID 493191)
# Settings: CellTiter-Glo luminescence, 24 h; at 35 µM (top of the series)
row,Structure (SMILES),"activity change, negative = inhibition"
1,CCc1nc2c(n1)c1c(non1O)c1c2no[n+]1[O-],inactive: -33.1%
